Key:
Blattella germanica = test: Impregnated filter paper test with cockroaches (Example C); details: 1000 ppm; Blatella germanica; adults on impregnated filter paper
[1] = test system: Lucilia cuprina resistent-Larven; test: Test with resistant Lucilia cuprina larvae; details: 1000 ppm; after 24 h
Musca domestica = test: Impregnated filter paper test with flies (Example C); details: 1000 ppm, adults on impregnated filter paper
Sitophilus granarius = test: Impregnated filter paper test with grain weevils (Example C); details: 1000 ppm, adults on impregnated filter paper

Structure (SMILES): CCOP(=S)(NC(C)C)SC(C)(F)F (racemic)
- Wirkung (Blattella germanica): 100%
- Abtötungsgrad [1]: 100%
- Wirkung (Musca domestica): 100%
- Wirkung (Sitophilus granarius): 100%

Structure (SMILES): CCOP(=S)(SC(C)(F)F)N(C)C (racemic)
- Abtötungsgrad [1]: 100%

Reference: EP0417558A2, “S-haloalkyl(di)(tri)(thio)phosphoric(phosphonic)acid(amide) esters” (dated 1991)
